For the test, the target named is H3 histamine receptor (Homo sapiens, UniProt Q9Y5N1). Description: Intrinsic activity at H3R, Aequoscreen assay. Format: cell-based. As for the experimental part:
Intrinsic activity studies were performed using two methods, Aequoscreen and LANCE Ultra cAMP assays, according to the manufacturer of the ready-to-use cells with stable expressions of the H3 histamine receptor (Perkin Elmer).
The Aequoscreen technology uses recombinant cell lines with stable co-expression of apoaequorin and a GPCR as a system to detect activation of the receptor, following the addition of an agonist, via the measurement of light emission. For the measurement, cells (frozen, ready to use) were thawed and resuspended in 10 mL of assay buffer containing 5 μM of coelenterazine h. The cell suspension was then placed in a 10 mL Falcon tube, fixed on a rotating wheel, and incubated overnight at RT° in the dark. Cells were diluted with assay buffer at 5000 cells/20 µL. Agonistic ligands 2 × (50 μL/well), diluted in assay buffer, were prepared in 1/2 area white polystyrene plates, and 50 μL of cell suspension was dispersed on the ligands using the injector. The light emission was recorded for 20 s. Cells were incubated with antagonist for 15 min at RT°. Then, 50 µL of agonist (final concentration equal to 3 × EC80) was injected into the mixture of cells and antagonist and light emission was recorded for 20 s.

By UniProt entry, the sequences of proteins in these tests, tags left out. Where a name states a change or a piece, a line headed by the entry shows the natural chain unless it says otherwise.
UniProt Q9Y5N1: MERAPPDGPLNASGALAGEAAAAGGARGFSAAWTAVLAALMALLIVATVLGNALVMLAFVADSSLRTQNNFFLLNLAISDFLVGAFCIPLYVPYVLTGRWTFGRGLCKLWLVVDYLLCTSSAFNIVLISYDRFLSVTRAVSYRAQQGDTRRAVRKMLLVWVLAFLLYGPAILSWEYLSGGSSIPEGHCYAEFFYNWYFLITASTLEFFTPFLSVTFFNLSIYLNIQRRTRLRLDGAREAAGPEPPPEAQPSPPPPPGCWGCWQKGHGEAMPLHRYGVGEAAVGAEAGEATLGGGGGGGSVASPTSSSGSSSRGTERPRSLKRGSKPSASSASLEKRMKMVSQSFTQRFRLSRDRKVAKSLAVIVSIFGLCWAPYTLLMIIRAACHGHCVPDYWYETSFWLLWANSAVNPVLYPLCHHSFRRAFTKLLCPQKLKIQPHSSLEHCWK

For one molecule, IC50 results are on record in publication PMC9266460, “KSK-74: Dual Histamine H3 and Sigma-2 Receptor Ligand with Anti-Obesity Potential” (International Journal of Molecular Sciences, 2022).

One may read the IC50 as the concentration that inhibits the measured activity by half. Low values mean greater potency in that assay, high ones weaker potency in that assay. Consider `NC(=NCc1ccc(Cl)cc1)SCCCc1cnc[nH]1` [Clobenpropit, clobenpropit, reference compound], for which the IC50 stood at 1.1 ± 0.3 nM.
